Measurements: patent US20260048036A1, “CRYSTALLINE FORMS OF A GLUCOSYLCERAMIDE SYNTHASE INHIBITOR AND USES THEREOF” (ACELINK THERAPEUTICS, INC., priority 2022, published 2026)
Positions count from the first letter of the chain named.

By UniProt entry, the sequences of proteins in these tests, tags left out. Where a name states a change or a piece, a line headed by the entry shows the natural chain unless it says otherwise.
UniProt Q16739: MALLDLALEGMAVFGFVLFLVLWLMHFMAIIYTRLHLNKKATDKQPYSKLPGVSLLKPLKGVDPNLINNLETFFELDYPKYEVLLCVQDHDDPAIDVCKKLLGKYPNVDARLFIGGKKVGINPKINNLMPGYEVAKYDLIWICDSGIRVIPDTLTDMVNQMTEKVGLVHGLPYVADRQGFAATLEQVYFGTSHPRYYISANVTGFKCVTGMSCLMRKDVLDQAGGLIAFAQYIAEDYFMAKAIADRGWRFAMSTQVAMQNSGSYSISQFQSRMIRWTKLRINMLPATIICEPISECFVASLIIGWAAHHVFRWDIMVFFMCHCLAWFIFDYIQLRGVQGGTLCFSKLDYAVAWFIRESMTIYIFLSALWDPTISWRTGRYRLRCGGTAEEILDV

Experiments:
[1] = molecular target: T1, Glucosylceramide synthase (GCS) (Canis lupus familiaris, UniProt A0A8I3MXG6); assay: GCS enzymatic assay with MDCK cell lysate; assay type: biochemical, canine; details: MDCK cell lysate as source of GCS; C6-NBD-glucosylceramide by LC-MS/MS
T1 construct: The MDCK, K-562, and L6 cell lines all endogenously express GCS enzyme; host or cells: MDCK (canine kidney) cell lysate
T1 sequence (A0A8I3MXG6 1-394): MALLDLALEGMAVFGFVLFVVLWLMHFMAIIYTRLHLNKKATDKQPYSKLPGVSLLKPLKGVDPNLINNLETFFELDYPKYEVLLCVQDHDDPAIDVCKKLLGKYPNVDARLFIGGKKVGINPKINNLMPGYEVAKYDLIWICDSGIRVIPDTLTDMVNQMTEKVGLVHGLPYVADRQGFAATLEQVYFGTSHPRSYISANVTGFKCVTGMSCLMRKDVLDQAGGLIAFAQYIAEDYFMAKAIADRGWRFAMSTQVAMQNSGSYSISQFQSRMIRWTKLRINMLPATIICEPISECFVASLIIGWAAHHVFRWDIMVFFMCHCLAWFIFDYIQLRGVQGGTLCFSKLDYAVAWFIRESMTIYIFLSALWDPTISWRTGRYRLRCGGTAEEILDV
Description: In this study, the inventors developed a reliable method to monitor GCS catalytic activity using the fluorescent substrate, C6-NBD-ceramide. The reaction product, C6-NBD-glucosylceramide, could then be detected and quantified by LC-MS/MS. The inventors used this method to test and validate the effect of various GCS inhibitors on GCS enzyme activity from different species.
The MDCK, K-562, and L6 cell lines all endogenously express GCS enzyme and were used to test the effect of various GCS inhibitors on enzyme originating from different species. The GCS enzyme activity was detected by using the fluorescent substrate, C6-NBD-ceramide, and monitoring the formation of the fluorescent reaction product, C6-NBD-glucosylceramide. […]
GCS activity was evaluated using a GCS enzyme assay derived from MDCK or L6 cell lysates.
MDCK or L6 cell lysates were prepared using M-PER in the presence of a protease inhibitor cocktail. […] Protein concentration was determined using Pierce BCA protein assay kit. […]
The quantitative analysis of C6-NBD-glucosylceramide was performed on a Shimadzu ultra-fast liquid chromatography coupled with API 4000 mass spectrometer. […]
(§1) The C6-NBD-glucosylceramide reading was normalized first by dividing the peak area of C6-NBD-glucosylceramide with the peak area of the internal standard, and then the amount was calculated according to the standard curve generated in the same assay run. […]

[2] = molecular target: T2, Glucosylceramide synthase (GCS) (Homo sapiens, UniProt Q16739); assay: GCS cell-based assay with live K-562 cells; details: C6-NBD-glucosylceramide by LC-MS/MS
T2 construct: The MDCK, K-562, and L6 cell lines all endogenously express GCS enzyme; host or cells: K-562 human leukemia cells, live
T2 sequence (Q16739 1-394): T1 sequence (A0A8I3MXG6 1-394) with V20L, S196Y
Description: The reaction product, C6-NBD-glucosylceramide, could then be detected and quantified by LC-MS/MS. The inventors used this method to test and validate the effect of various GCS inhibitors on GCS enzyme activity from different species.
The GCS enzyme activity was detected by using the fluorescent substrate, C6-NBD-ceramide, and monitoring the formation of the fluorescent reaction product, C6-NBD-glucosylceramide. First, the inventors used cell lysate derived from a canine kidney cell line (MDCK, ATCC Cat #CCL-34™) as the source of GCS and tested the inhibitory activity of several control and test compounds.
The quantitative analysis of C6-NBD-glucosylceramide was performed on a Shimadzu ultra-fast liquid chromatography coupled with API 4000 mass spectrometer. Analyst 1.5 software packages were used to control the LC-MS/MS system, as well as for data acquisition and processing.
as §1, with “run. For the cell based assay results, the amount of C6-NBD-glucosylceramide was also normalized by the protein concentration of the cell samples.” for “run.”

With CC(C)(NC(=O)O[C@@H]1CN2CCC1CC2)c1csc(-c2ccc(F)cc2)n1 [Venglustat, reference compound] the IC50 [1] was 72.2 nM and the IC50 [2] was 511 nM.
